Source: US5434247A, “Peptides for inducing monocyte cytotoxicity in diagnostics” (Board of Regents, The University of Texas System, priority 1992, dated 1995)

Tested on: human monocytes / K562
Test: Human monocyte cytotoxicity assay (MCF assay), 111In-Ox labeled K562 targets
Type: cell-based
Procedure: FIG. 1. Hybrid cells were adjusted to 1×10^6 /ml and stimulated with 8 ug/ml PHA(+). […] to control (-) cultures, and both supernatants harvested by centrifugation. Monocyte cytotoxicity was measured as described herein with the exception that the monocyte monolayer was incubated overnight to allow for decay of NK cell activity. The monolayer was incubated for a second 24 hr period with dilutions of MCF containing supernatants. Dilutions represented are 1/4 in a total test volume of 0.2 ml. […] Microtiter plates were centrifuged 16 hrs later, and supernatants collected and counted. % specific release was calculated as described herein.
Only healthy volunteer donors were used. All volunteer donors signed an informed consent, and the protocol was approved by the Committee for the Protection of Human Subjects, University of Texas Health Science Center. Mononuclear cells were prepared by centrifugation over Ficoll/Hypaque. […] The monolayer was incubated overnight to allow for decay of residual natural killer activity before addition of lymphokine preparations on day 2.
The effector to target ratio was 30:1. […] After 18 hrs incubation of monocyte monolayer with target, the plates were centrifuged and supernatant was removed and cpms were counted in a Beckman Biogamma 2000. Specific release was calculated as described by Wiltrout, supra. […] Other tumor targets used were HL-60, L5178Y and TU5 (Table V).

rIL2: rIL 2 (Genzyme Corp.)
monocyte cytotoxicity inducing activity (in words) (K562 target): Neither IL 1 or IL 2 had any activity
% specific lysis (cytokine added at 1 U/ml): -10.2 ± 17.7%
% specific lysis (cytokine added at 10 U/ml): -4.6 ± 4.3%
% specific lysis (cytokine added at 100 U/ml): -3.2 ± 3.5%
% specific lysis (cytokine added at 1000 U/ml): 2.7 ± 6.2%
